Experimental data published in patent US11268120B2, “Identification of transglutaminase substrates and uses therefor” (Roche Sequencing Solutions, Inc., priority 2014, dated 2022).

Target: T1, MTG (Streptomyces mobaraensis, UniProt P81453)
T1 construct: purchased Zedira GmbH
T1 sequence (P81453 77-407): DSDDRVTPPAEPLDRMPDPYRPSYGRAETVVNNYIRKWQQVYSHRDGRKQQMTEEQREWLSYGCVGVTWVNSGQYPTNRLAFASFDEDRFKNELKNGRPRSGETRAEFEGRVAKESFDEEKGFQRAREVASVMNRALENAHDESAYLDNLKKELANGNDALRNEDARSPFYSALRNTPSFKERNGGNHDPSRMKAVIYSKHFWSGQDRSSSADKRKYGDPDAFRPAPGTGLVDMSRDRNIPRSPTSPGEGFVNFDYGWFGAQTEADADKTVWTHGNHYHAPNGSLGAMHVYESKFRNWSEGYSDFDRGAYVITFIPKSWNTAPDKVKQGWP
Test: GLDH-coupled continuous assay for MTG activity in solution, Gln-containing substrate peptides
Assay type: biochemical
Settings: pH 7.2, 37° C.
Description: FIG. 3 is a plot of MTG activity obtained by measuring rates of NADH oxidation at 340 nm and 37° C. using various concentrations of the di-peptide QG (1-20 mM) and the peptide GGGDYALQGGGG (SEQ ID NO: 86) (0.2-5 mM) in the GLDH-coupled assay. The Michaelis-Menten equation was used to fit hyperbolic curves to the data points, giving Km and Vmax parameters and allowing calculation of turnover number (kcat) and catalytic efficiency (kcat/KM). Improved performance of array selected GGGDYALQGGGG (SEQ ID NO: 86) (open squares) substrate was observed compared to standard QG-substrate (filled squares). ‘Z’ represents a carboxybenzyl protective group. […] The Michaelis-Menten equation was used to fit hyperbolic curves to the data points, giving Km and Vmax parameters as well as allowing calculation of turnover number (kcat) and catalytic efficiency (kcat/KM). […]
It was next determined whether peptides selected in the array assay were also preferred substrates in the solution reaction. […]
The assay was performed in a 96-well microtiter plate in the presence of 10 mM α-ketoglutarate, 10 mM glycine methyl ester as acyl acceptor, 2 U of glutamate dehydrogenase (GLDH), 500 μM NADH (i.e., reduced nicotinamide adenine dinucleotide) and Gln-containing substrate peptide concentrations ranging between 0.2 and 20 mM in 200 mM MOPS (i.e., 3-(N-morpholino)propanesulfonic acid), 1 mM EDTA pH 7.2 (total volume per well 200 μl). The reaction was started by the addition of 0.1 U of MTG (Zedira GmbH) and the oxidation of NADH was continuously recorded against a blank at 340 nm for 20 min using a Biotek Synergy H4 microplate reader thermostated at 37° C. with short shaking intervals before each measurement. After a short lag phase, where the GLDH was saturated by MTG-mediated release of ammonia, linear rates of absorbance versus time, corresponding to MTG turnover, were observed, and subjected to Michaelis-Menten kinetic analysis.

Z-QG [reference compound]
Km (Gln-peptide 0.2-20 mM, 10 mM glycine methyl ester as acyl acceptor): 2610 ± 400 µM
Vmax (Gln-peptide, 0.1 U MTG): 0.39 ± 0.02 nmol/s
kcat (Gln-peptide): 5.1 s⁻¹
